PubChem BioAssay AID504898 (Southern Research Specialized Biocontainment Screening …, 2011)
pIC50: −log10 of the molar value.

System: M. tuberculosis H37Rv growth inhibition, glycerol-free medium
Test: Confirmatory M tuberculosis H37Rv growth inhibition assay in glycerol free medium (AID 504898)

Question: Which results are given for CO[C@H]1/C=C/O[C@@]2(C)Oc3c(C)c(O)c4c(O)c(c(C=NN5CCN(C)CC5)c(O)c4c3C2=O)NC(=O)/C(C)=C\C=C\[C@H](C)[C@H](O)[C@@H](C)[C@@H](O)[C@@H](C)[C@H](OC(C)=O)[C@@H]1C?
Answer: IC90: 13 nM; pIC50 (measured here: M. tuberculosis growth IC50): 8.05
